# Earlier results as cited in publication PMC3063522 (Journal of agricultural and food chemistry, 2011).
# Conditions: homologous standards for the HPLC regression; cited from earlier work
smiles,measurement,value
CCCCc1ccccc1 [butylbenzene],log P (known constants of standards),4.26
